According to patent US4758555A, “Method for treating convulsions and epilepsy with organic copper compounds” (priority 1986, dated 1988):

Test: Lethality / acute toxicity (LD50 in 24 hours)
Conditions: dose and time given in the source

## Cu(II)(4-nitrosalicylate)2
  Lethality (in words): Lethal at higher doses
